This assay deals with Voltage-gated inwardly rectifying potassium channel KCNH2 (Homo sapiens, UniProt Q12809).

The chains behind the UniProt entries cited, without tags or fusion partners. Where a name states a change or a piece, a line headed by the entry shows the natural chain unless it says otherwise.
UniProt Q12809: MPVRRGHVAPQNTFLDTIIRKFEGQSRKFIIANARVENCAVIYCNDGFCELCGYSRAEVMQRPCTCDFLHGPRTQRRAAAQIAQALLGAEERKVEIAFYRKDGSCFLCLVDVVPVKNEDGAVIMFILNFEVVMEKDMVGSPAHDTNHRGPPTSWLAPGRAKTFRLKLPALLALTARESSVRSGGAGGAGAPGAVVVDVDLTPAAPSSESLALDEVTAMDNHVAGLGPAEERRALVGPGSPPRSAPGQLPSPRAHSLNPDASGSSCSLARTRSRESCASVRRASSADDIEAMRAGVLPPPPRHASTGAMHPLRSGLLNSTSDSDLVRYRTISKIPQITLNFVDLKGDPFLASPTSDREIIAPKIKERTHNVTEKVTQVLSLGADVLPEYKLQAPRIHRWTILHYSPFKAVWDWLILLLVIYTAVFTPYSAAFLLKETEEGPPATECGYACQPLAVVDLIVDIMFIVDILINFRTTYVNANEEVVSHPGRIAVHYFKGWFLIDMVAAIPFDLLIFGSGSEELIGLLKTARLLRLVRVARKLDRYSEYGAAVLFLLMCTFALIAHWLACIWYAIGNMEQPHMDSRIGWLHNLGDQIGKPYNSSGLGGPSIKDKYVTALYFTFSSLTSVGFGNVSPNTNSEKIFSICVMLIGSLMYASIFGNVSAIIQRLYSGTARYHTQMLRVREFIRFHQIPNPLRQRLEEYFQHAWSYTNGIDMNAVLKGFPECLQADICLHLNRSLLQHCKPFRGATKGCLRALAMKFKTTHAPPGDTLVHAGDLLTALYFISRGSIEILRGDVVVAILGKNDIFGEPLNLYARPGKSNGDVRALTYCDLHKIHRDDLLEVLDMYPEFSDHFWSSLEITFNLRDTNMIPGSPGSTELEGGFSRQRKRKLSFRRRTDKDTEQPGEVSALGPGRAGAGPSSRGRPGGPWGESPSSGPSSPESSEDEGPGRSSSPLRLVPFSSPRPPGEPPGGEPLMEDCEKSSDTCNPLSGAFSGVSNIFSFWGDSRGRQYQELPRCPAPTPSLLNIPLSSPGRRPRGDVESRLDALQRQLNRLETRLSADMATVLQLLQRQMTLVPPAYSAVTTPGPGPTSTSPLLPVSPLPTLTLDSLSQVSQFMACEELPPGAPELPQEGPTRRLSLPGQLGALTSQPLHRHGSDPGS

The text below walks through data of ChEMBL document CHEMBL1137244, “Ureas with histamine H3-antagonist receptor activity--a new scaffold discovered by lead-hopping from cinnamic acid amides” (Bioorg Med Chem Lett, 2006).

One may read the Ki as a measure of affinity in units of concentration, obtained from inhibition or displacement. A higher Ki goes with lower affinity. In turn, `CC(C)COCC(CN(Cc1ccccc1)c1ccccc1)N1CCCC1` (stereo unspecified) [BEPRIDIL] returned an inhibitory constant (Ki) of 444 nM.
